According to US20110081675A1, “Metabolic Biomarkers Of Drug-Induced Cardiotoxicity” (WISCONSIN ALUMNI RESEARCH FOUNDATION, priority 2009, published 2011):

Tested on: human cardiomyocytes (Celprogen 36044-15at)
Experiment: LC-ESI-TOF-MS metabolomics of extracellular media of drug-treated human cardiomyocytes (Tables 2A-2C)
Assay type: cell-based
Conditions: 7.0ug.ml herceptin; for herfold1: set 1; for herfold2: set 2
Experimental: Data for statistical analysis were extracted from chromatograms using the Agilent Mass Hunter software (Product No. G3297AA, Agilent Technologies, Inc., Santa Clara, Calif.); it will be understood that alternative statistical analysis methods can be used. Masses were binned together if they were within 10 ppm and eluted within a 2 minutes retention time window. A binned mass was considered to be the same molecule across different LC-ESI-TOF-MS analyses (referred to herein as an “exact mass,” which will be understood to be ±10 ppm). Binning of the data is required for statistical analysis and comparison of masses across the entire experiment. If multiple peaks with the same mass at the same retention time within a single sample were detected by Mass Hunter, they were averaged to assist data analysis. Masses lacking a natural isotopic distribution or with an absolute height of less than 1000 were removed from the data prior to analysis. It would be understood that the results from this assay provide relative values that are assessed according to annotated values within 10 ppm to provide an identity for the molecular weight detected. Thus, a mass shift within 10 ppm is considered consistent with determining the identity of a specific cellular metabolite previously annotated due to differences in ionization source and instrumentation, e.g. between different experiments or using different instruments.
As used herein, a mass was considered to be the same across LC/ESI-TOF-MS runs using a simple algorithm that first sorts the data by mass and retention time. […] If a series of measurements fit this definition it was considered to be from the same compound. If either the mass or the retention time varied by more than the limits listed above it was considered to be a different compound and given a new unique designation.
The data from the most reproducible mass features was log base 2 transformed and median centered prior to statistical analysis. […] To test the null hypothesis a one way permutation based t-test assuming a normal approximation of the conditional distribution was used and implement using the Conditional Inference Procedures in a Permutation Test Framework (Coin) library, a contributed package of programming code. Statistics tests were performed without replacement of missing values decrease the degrees of freedom rather than imputing missing values. […] False discovery rates (FDR) were controlled using the Q value estimator (Storey et al., 2003, Proc Natl Acad. Sci., 100:9440-5) and implemented using the qvalue library in R (Dabney et al., 2003, qvalue: Q-value estimation for false discovery rate control. R package version 1.10.0., www.CRAN.R-project.org).
The extracellular media from treated and untreated cells was processed as described in Cezar et al., (2007, Stem Cells Development 16: 869-882, this publication is incorporated by reference), for extraction of low molecular weight molecules (<3 kD) for metabolomics analysis. Extracellular low molecular weight molecule preparations were separated by liquid chromatography followed by electrospray ionization time of flight (LC-ESI-TOF-MS) mass spectrometry for ionization and detection of the full spectra of low molecular weight molecules present in each sample. More specifically, the samples were separated using the ESI_Luna_HILIC—95_t—06OACN—16 min method (HILIC chromatography). Statistical differences were inferred by subsequent bioinformatics and in silico mapping of deisotoped ESI-TOF-MS mass features as described below (also provided in Cezar et al. (2007, id.)).
Briefly, ionization (100 m/z-1500 m/z) was acquired on an Agilent 6520 Accurate-Mass Q-TOF in extended dynamic range and positive mode. Mass features were generated using two independent methods. First MassHunter Qualitative Analysis was used to generate mass features using the Molecular Feature Extraction algorithm (MFE).

[1] = feature cpdID 36, neutral mass 101.1204, RT 0.720145, Triethylamine or Hexylamine
[2] = feature cpdID 8902, neutral mass 276.1256, RT 8.733378, no hit
[3] = feature cpdID 11232, neutral mass 311.1029, RT 7.400847, p-Glucosyloxymandelonitrile or (S)-4-Hydroxymandelonitrile beta-D-glucoside
[4] = feature cpdID 14190, neutral mass 356.253, RT 1.103957, HMDB04239, 13,14-dihydro PGE1 or Prostaglandin F1alpha
[5] = feature cpdID 16504, neutral mass 393.0913, RT 7.25538, no hit
[6] = feature cpdID 16939, neutral mass 400.2796, RT 1.108613, 7-Ketocholesterol
[7] = feature cpdID 19500, neutral mass 444.3034, RT 1.106333, 1,25-Dihydroxyvitamin D3-26,23-lactone
[8] = feature cpdID 19704, neutral mass 448.1344, RT 7.184483, no hit
[9] = feature cpdID 21926, neutral mass 488.3323, RT 1.106573, no hit
[10] = feature cpdID 23129, neutral mass 515.181, RT 10.44297, no hit
[11] = feature cpdID 23163, neutral mass 516.1241, RT 7.217222, Formononetin 7-O-glucoside-6″-O-malonate, Isochlorogenic acid b or 13-Dicaffeoylquinic acid
[12] = feature cpdID 24142, neutral mass 538.2779, RT 0.783395, no hit
[13] = feature cpdID 25561, neutral mass 575.2051, RT 7.271724, no hit
[14] = feature cpdID 28720, neutral mass 661.1924, RT 6.495524, no hit
[15] = feature cpdID 29101, neutral mass 672.1828, RT 6.528464, no hit
[16] = feature cpdID 29227, neutral mass 676.1781, RT 1.298314, no hit
[17] = feature cpdID 31637, neutral mass 744.1091, RT 1.26415, no hit
[18] = feature cpdID 37905, neutral mass 932.2608, RT 6.542554, no hit
[19] = feature cpdID 37938, neutral mass 933.3726, RT 8.330596, no hit
[20] = feature cpdID 40510, neutral mass 1040.322, RT 6.499979, no hit
[21] = feature cpdID 42137, neutral mass 1122.172, RT 1.256606, no hit

**Q.** “Herceptin: therapeutic HER2/ERBB2 monoclonal antibody (trastuzumab)” was tested. Which herfold1 [1] did it give?
**A.** −1.771 fold

**Q.** What about the herfold1 [2] of the same substance?
**A.** −1.21 fold

**Q.** What about the herfold1 [3] of the same substance?
**A.** −1.145 fold

**Q.** What about the herfold1 [4] of the same substance?
**A.** 1.138 fold

**Q.** What about the herfold1 (feature cpdID 15112, neutral mass 372.0557, RT […], no hit) of the same substance?
**A.** −1.405 fold

**Q.** And the herfold1 [5]?
**A.** −1.7268 fold

**Q.** And the herfold1 [6]?
**A.** −1.086 fold

**Q.** And the herfold1 [7]?
**A.** 4.038 fold

**Q.** What about the herfold1 [8] of the same substance?
**A.** −1.236 fold

**Q.** And the herfold1 [9]?
**A.** 1.09 fold

**Q.** And the herfold1 [10]?
**A.** −1.096 fold

**Q.** And the herfold1 [11]?
**A.** −1.371 fold

**Q.** And the herfold1 [12]?
**A.** 1.081 fold

**Q.** What about the herfold1 [13] of the same substance?
**A.** 1.224 fold

**Q.** And the herfold1 [14]?
**A.** −1.142 fold

**Q.** And the herfold1 [15]?
**A.** −1.02 fold

**Q.** What about the herfold1 [16] of the same substance?
**A.** −305510 fold

**Q.** And the herfold1 [17]?
**A.** 1.342 fold

**Q.** What about the herfold1 [18] of the same substance?
**A.** 1.083 fold

**Q.** And the herfold1 [19]?
**A.** −1.289 fold

**Q.** And the herfold1 [20]?
**A.** 1.225 fold

**Q.** What about the herfold1 [21] of the same substance?
**A.** −32248 fold

**Q.** And the herfold2 [1]?
**A.** 1.711 fold

**Q.** And the herfold2 [2]?
**A.** −1.489 fold

**Q.** And the herfold2 [3]?
**A.** −1.2418 fold

**Q.** What about the herfold2 [4] of the same substance?
**A.** −1.178 fold

**Q.** And the herfold2 [5]?
**A.** −1.017 fold

**Q.** What about the herfold2 [6] of the same substance?
**A.** −1.231 fold

**Q.** And the herfold2 [7]?
**A.** 3.489 fold

**Q.** And the herfold2 [8]?
**A.** −1.279 fold

**Q.** And the herfold2 [9]?
**A.** −1.11 fold

**Q.** And the herfold2 [10]?
**A.** −1.1782 fold

**Q.** What about the herfold2 [11] of the same substance?
**A.** −1.338 fold

**Q.** And the herfold2 [12]?
**A.** −1.081 fold

**Q.** And the herfold2 [13]?
**A.** 1.234 fold

**Q.** What about the herfold2 (feature cpdID 25601, neutral mass 576.3861, RT 1.10751, 3-Hexaprenyl-4-hydroxy-5-methoxybenzoic acid) of the same substance?
**A.** −1.101 fold

**Q.** What about the herfold2 (feature cpdID 27363, neutral mass 620.4117, RT 1.108317, no hit) of the same substance?
**A.** −1.096 fold

**Q.** What about the herfold2 [14] of the same substance?
**A.** 1.388 fold

**Q.** And the herfold2 [15]?
**A.** −1.115 fold

**Q.** And the herfold2 (feature cpdID 29124, neutral mass 672.6836, RT 6.559082, no hit)?
**A.** 22972 fold

**Q.** What about the herfold2 [16] of the same substance?
**A.** −1.1913 fold

**Q.** What about the herfold2 [17] of the same substance?
**A.** −1.048 fold

**Q.** And the herfold2 (feature cpdID 33162, neutral mass 791.2316, RT 6.496594, no hit)?
**A.** −1.037 fold

**Q.** What about the herfold2 [18] of the same substance?
**A.** −1.182 fold

**Q.** And the herfold2 (feature cpdID 37922, neutral mass 932.7613, RT 6.562271, no hit)?
**A.** 25460 fold

**Q.** And the herfold2 [19]?
**A.** −1.013 fold

**Q.** What about the herfold2 [20] of the same substance?
**A.** −1.043 fold

**Q.** What about the herfold2 [21] of the same substance?
**A.** −32248 fold

**Q.** What about the herfold2 (feature cpdID 45209, neutral mass 1300.402, RT 6.501484, no hit) of the same substance?
**A.** −1.045 fold

**Q.** What about the herfold2 (feature cpdID 45486, neutral mass 1322.385, RT 6.518707, no hit) of the same substance?
**A.** −1.0661 fold
